Measured values reported in ChEMBL document CHEMBL3407426, “Synthesis and biological evaluations of novel endomorphin analogues containing α-hydroxy-β-phenylalanine (AHPBA) displaying mixed μ/δ opioid receptor agonist and δ opioid receptor antagonist activities” (Eur J Med Chem, 2015).

By UniProt entry, the sequences of proteins in these tests, tags left out.
UniProt P33533, whole entry: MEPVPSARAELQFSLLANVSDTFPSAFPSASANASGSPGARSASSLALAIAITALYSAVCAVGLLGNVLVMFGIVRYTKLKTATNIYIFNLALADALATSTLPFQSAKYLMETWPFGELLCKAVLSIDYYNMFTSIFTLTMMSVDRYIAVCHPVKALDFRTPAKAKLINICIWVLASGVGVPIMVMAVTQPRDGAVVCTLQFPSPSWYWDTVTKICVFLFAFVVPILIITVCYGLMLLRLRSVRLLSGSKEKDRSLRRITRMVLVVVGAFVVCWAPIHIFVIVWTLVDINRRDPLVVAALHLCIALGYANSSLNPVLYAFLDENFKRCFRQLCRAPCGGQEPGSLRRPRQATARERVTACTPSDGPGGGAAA

Target: Delta-type opioid receptor (Rattus norvegicus, UniProt P33533)
Assay: Displacement of [3H]DPDPE from rat cortex delta opioid receptor after 2.5 hrs by liquid scintillation counting analysis

SMILES | Ki [µM]
NC(=O)[C@H](O)[C@H](Cc1ccccc1)NC(=O)[C@H](Cc1ccccc1)NC(=O)[C@@H]1CCCN1C(=O)[C@@H](N)Cc1ccc(O)cc1 | 0.967
NC(=O)[C@@H](O)[C@@H](Cc1ccccc1)NC(=O)[C@H](Cc1ccccc1)NC(=O)[C@@H]1CCCN1C(=O)[C@@H](N)Cc1ccc(O)cc1 | 0.563
NC(=O)[C@@H](O)[C@H](Cc1ccccc1)NC(=O)[C@H](Cc1ccccc1)NC(=O)[C@@H]1CCCN1C(=O)[C@@H](N)Cc1ccc(O)cc1 | 3.84
NC(=O)[C@H](O)[C@@H](Cc1ccccc1)NC(=O)[C@H](Cc1ccccc1)NC(=O)[C@@H]1CCCN1C(=O)[C@@H](N)Cc1ccc(O)cc1 | 0.462
